The source of these data is patent publication US20040018194A1.

Amino acid sequences for entries named in this document (tags omitted). Residues count along the entry.
UniProt P28908, 19-595: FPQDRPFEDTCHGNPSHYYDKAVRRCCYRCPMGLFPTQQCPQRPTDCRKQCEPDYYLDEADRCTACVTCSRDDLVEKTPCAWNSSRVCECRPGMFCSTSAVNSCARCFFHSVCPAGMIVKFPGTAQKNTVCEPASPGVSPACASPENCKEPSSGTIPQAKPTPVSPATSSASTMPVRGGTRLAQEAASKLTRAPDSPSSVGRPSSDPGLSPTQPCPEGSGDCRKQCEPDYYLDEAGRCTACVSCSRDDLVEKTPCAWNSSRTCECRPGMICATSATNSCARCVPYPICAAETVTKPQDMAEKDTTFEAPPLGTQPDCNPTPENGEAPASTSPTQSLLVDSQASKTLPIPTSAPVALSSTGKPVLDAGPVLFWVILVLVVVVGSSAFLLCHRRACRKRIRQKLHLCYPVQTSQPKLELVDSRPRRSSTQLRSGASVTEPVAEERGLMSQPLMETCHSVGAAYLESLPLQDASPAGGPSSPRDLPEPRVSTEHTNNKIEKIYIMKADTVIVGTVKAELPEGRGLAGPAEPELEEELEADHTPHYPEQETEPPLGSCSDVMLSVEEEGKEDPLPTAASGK

The target in this assay is CD30 (human CD30 receptor) on the cell surface of CD30-positive cell lines (human) (UniProt P28908). Briefly: cell-based or functional assay.

Regarding “chimeric AC10 conjugated to the cytotoxic agent AEB (cAC10-AEB) (antibody)”, the IC50 (concentration that killed 50% of the cells), XTT reduction assay, Karpas 299 cells, 2 h exposure, viability at 96 h is less than 0.1 microgram/ml and the IC50 (concentration that killed 50% of the cells), XTT reduction assay, L540cy cells, 2 h exposure, viability at 96 h was less than 0.1 microgram/ml.
